Earlier results as cited in patent publication US20130216523A1, “Methods for Facilitating Diagnosis, Prognosis and Treatment of Cancer by Detecting HER1 Expression” (LABORATORY CORPORATION OF AMERICA HOLDINGS, priority 2011, published 2013).

System: recurrent and/or metastatic SCCHN
Settings: Vermorken et al. 2008, 2007

cetuximab
subjects with SCCHN that respond to treatment: 13-16%
